From paper PMC4076284, “A Characteristic Back Support Structure in the Bisphenol A-Binding Pocket in the Human Nuclear Receptor ERRγ” (PLoS ONE, 2014)

Sequences of proteins named here, by UniProt entry; tags and fusion partners are left off. A change or cut given only in a name is not applied to a line headed by its entry. Residues count along the entry.
UniProt P62508, 222-458 L345A limits assumed: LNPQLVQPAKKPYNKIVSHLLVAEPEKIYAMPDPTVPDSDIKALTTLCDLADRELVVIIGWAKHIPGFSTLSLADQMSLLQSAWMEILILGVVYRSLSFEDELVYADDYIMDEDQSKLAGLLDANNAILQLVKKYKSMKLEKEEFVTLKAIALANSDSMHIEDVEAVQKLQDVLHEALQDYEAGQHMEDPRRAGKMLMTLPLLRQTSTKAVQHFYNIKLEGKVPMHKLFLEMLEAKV
UniProt P62508, 222-458 L345V limits assumed: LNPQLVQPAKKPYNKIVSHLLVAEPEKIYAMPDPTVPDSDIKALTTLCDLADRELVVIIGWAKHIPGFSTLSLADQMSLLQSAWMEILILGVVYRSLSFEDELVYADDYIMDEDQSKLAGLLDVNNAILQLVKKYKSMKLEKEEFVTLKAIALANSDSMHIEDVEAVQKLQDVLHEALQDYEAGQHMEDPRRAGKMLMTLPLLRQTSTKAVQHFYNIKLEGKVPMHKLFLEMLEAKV
UniProt P62508, 222-458 N346A limits assumed: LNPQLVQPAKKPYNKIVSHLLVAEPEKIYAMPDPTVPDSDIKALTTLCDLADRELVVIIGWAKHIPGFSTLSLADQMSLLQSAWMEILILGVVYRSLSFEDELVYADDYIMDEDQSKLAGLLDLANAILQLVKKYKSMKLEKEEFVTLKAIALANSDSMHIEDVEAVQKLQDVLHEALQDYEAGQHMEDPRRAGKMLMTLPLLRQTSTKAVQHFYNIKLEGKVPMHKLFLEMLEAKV
UniProt P62508, 222-458 N346G limits assumed: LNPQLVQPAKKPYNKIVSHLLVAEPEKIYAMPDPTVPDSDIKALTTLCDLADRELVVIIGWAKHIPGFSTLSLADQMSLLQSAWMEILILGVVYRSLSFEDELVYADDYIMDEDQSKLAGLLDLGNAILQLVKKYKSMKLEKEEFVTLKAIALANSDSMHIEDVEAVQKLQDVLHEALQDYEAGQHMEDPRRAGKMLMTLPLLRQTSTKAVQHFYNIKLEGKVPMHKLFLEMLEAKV
UniProt P62508, 222-458 N346Y limits assumed: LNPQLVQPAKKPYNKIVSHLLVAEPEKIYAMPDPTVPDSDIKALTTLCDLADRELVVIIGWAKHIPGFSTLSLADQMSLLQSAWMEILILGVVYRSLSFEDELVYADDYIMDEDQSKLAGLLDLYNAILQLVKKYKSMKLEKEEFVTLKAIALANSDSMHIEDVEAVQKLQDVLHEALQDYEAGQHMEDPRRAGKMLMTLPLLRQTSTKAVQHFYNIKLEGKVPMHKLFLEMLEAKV
UniProt P62508, 222-458 Y330A limits assumed: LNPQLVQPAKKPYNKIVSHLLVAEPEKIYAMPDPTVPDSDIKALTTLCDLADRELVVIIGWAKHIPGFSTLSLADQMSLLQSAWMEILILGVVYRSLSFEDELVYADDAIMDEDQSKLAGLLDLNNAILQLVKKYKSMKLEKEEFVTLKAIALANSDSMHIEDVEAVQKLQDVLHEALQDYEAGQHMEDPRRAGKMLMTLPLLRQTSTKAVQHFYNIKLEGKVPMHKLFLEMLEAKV
UniProt P62508, 222-458 Y330F limits assumed: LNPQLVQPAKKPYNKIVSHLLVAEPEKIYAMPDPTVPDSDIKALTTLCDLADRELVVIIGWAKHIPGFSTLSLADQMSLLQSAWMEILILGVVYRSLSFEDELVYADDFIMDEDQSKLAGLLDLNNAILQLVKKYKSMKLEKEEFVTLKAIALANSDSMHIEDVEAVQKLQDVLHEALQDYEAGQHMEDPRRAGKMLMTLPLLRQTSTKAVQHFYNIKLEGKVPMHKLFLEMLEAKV
UniProt P62508, 222-458 limits assumed: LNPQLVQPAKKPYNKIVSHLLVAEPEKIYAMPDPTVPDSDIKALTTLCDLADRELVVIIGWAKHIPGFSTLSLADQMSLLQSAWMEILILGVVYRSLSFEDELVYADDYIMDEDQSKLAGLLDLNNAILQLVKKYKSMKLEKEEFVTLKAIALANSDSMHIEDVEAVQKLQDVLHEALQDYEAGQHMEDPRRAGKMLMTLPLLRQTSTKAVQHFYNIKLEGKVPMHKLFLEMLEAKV
UniProt P62508, 222-458 H434A limits assumed: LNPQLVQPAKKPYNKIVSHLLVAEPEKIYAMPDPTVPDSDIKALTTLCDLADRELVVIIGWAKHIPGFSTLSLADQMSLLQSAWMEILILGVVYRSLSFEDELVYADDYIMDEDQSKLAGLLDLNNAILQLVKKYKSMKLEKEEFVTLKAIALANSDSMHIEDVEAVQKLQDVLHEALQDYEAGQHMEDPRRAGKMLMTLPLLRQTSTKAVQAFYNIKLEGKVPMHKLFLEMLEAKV
UniProt P62508, 222-458 H434F limits assumed: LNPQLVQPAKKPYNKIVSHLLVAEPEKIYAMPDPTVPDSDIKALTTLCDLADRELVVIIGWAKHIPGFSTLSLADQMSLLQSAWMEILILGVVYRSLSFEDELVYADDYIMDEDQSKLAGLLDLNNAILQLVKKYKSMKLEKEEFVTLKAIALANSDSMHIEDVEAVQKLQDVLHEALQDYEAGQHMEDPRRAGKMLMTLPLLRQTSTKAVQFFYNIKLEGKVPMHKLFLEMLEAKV
UniProt P62508, 222-458 I349A limits assumed: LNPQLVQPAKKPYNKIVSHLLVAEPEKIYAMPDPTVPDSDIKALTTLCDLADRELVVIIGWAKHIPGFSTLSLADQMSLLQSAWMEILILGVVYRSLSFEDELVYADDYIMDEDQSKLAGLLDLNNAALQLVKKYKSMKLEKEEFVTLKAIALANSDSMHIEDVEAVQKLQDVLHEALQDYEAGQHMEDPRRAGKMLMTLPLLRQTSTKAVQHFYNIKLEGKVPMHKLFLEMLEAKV
UniProt P62508, 222-458 I349L limits assumed: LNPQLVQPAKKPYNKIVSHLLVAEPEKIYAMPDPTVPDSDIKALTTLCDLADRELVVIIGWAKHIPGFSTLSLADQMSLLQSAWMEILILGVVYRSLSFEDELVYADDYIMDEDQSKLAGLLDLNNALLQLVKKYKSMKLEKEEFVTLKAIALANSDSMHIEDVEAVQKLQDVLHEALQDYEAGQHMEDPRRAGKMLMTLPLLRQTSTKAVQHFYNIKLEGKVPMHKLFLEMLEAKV
UniProt P62508, 222-458 I349V limits assumed: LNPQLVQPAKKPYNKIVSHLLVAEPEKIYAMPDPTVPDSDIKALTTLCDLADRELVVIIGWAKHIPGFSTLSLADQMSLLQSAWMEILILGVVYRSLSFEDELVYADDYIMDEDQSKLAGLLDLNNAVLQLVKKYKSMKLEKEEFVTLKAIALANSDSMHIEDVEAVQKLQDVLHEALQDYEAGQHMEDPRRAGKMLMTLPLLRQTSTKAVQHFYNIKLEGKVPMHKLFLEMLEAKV
UniProt P62508, 222-458 K430A limits assumed: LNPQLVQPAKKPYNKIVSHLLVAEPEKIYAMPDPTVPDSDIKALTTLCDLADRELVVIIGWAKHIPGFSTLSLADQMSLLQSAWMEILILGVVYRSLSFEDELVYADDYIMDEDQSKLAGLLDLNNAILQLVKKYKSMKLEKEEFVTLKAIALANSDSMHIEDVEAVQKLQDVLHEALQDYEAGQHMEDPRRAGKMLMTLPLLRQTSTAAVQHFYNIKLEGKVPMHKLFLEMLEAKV
UniProt P62508, 222-458 L265A limits assumed: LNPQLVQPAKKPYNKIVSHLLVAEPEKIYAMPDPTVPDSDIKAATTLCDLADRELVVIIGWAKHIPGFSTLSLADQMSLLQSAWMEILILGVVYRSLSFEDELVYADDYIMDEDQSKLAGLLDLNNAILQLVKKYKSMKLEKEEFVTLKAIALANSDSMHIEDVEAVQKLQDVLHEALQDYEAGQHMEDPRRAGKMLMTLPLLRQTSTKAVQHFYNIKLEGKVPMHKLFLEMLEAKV
UniProt P62508, 222-458 L324A limits assumed: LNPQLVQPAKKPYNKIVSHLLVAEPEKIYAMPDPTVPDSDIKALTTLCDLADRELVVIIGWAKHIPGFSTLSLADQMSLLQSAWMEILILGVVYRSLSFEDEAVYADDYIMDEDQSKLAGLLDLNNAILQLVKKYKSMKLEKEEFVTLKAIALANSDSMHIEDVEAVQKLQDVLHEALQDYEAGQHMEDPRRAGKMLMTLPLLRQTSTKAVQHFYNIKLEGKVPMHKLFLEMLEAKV
UniProt P62508, 222-458 L342A limits assumed: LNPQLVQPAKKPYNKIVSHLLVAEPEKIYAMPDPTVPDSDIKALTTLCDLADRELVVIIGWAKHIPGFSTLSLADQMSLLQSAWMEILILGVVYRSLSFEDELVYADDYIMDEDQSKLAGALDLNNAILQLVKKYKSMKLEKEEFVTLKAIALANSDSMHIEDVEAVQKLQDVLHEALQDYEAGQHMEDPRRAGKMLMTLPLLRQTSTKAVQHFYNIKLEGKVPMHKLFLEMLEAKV
UniProt P62508, 222-458 L342I limits assumed: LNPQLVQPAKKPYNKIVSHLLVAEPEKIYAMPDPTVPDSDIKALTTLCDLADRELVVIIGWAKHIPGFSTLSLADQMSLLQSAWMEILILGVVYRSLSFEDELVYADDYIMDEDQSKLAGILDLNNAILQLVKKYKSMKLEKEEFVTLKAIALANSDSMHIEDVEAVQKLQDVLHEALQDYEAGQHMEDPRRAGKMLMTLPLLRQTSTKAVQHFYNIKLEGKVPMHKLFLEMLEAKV
UniProt P62508, 222-458 L342V limits assumed: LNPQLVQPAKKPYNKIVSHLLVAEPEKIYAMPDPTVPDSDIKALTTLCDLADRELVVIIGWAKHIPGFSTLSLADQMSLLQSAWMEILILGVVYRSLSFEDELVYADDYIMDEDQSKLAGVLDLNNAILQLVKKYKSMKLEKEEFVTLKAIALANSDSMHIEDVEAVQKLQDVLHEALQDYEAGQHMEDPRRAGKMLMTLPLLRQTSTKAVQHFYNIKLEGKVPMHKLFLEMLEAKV
UniProt P62508, 222-458 L345I limits assumed: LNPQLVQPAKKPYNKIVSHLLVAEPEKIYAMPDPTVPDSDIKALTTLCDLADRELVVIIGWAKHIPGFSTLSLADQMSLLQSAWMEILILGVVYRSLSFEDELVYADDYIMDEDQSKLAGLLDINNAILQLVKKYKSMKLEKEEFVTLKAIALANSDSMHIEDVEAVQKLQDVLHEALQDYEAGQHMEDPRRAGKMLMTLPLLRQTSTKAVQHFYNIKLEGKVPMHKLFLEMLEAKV
UniProt P62508, 222-458 N346Q limits assumed: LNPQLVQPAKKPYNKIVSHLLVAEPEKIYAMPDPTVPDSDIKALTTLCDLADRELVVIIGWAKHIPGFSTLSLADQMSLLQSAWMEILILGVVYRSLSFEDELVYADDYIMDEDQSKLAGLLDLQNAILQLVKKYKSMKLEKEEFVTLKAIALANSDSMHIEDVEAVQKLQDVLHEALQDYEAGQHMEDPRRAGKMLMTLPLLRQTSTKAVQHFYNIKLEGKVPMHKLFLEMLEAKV

Experiments:
Conditions in all cases: tested as the radiolabelled form
[1] = molecular target: Leu324Ala-ERRγ mutant receptor (GST-fused LBD) (Homo sapiens, UniProt P62508, L324A); assay: Saturation binding assay using [^3H]BPA
[2] = molecular target: His434Phe-ERRγ mutant receptor (GST-fused LBD) (Homo sapiens, UniProt P62508, H434F); assay: Saturation binding assay using [^3H]BPA
[3] = molecular target: Leu342Ile-ERRγ mutant receptor (GST-fused LBD) (Homo sapiens, UniProt P62508, L342I); assay: Saturation binding assay using [^3H]BPA
[4] = molecular target: Ile349Leu-ERRγ mutant receptor (GST-fused LBD) (Homo sapiens, UniProt P62508, I349L); assay: Saturation binding assay using [^3H]BPA
[5] = molecular target: GST-fused wild-type ERRγ-LBD (Homo sapiens, UniProt P62508); assay: Saturation binding assay using [^3H]BPA
[6] = molecular target: Leu342Val-ERRγ mutant receptor (GST-fused LBD) (Homo sapiens, UniProt P62508, L342V); assay: Saturation binding assay using [^3H]BPA
[7] = molecular target: Leu265Ala-ERRγ mutant receptor (GST-fused LBD) (Homo sapiens, UniProt P62508, L265A); assay: Saturation binding assay using [^3H]BPA
[8] = molecular target: Asn346Gly-ERRγ mutant receptor (GST-fused LBD) (Homo sapiens, UniProt P62508, N346G); assay: Saturation binding assay using [^3H]BPA
[9] = molecular target: Lys430Ala-ERRγ mutant receptor (GST-fused LBD) (Homo sapiens, UniProt P62508, K430A); assay: Saturation binding assay using [^3H]BPA
[10] = molecular target: Asn346Gln-ERRγ mutant receptor (GST-fused LBD) (Homo sapiens, UniProt P62508, N346Q); assay: Saturation binding assay using [^3H]BPA
[11] = molecular target: Ile349Val-ERRγ mutant receptor (GST-fused LBD) (Homo sapiens, UniProt P62508, I349V); assay: Saturation binding assay using [^3H]BPA
[12] = molecular target: Ile349Ala-ERRγ mutant receptor (GST-fused LBD) (Homo sapiens, UniProt P62508, I349A); assay: Saturation binding assay using [^3H]BPA
[13] = molecular target: Leu345Val-ERRγ mutant receptor (GST-fused LBD) (Homo sapiens, UniProt P62508, L345V); assay: Saturation binding assay using [^3H]BPA
[14] = molecular target: Leu345Ile-ERRγ mutant receptor (GST-fused LBD) (Homo sapiens, UniProt P62508, L345I); assay: Saturation binding assay using [^3H]BPA
[15] = molecular target: Tyr330Ala-ERRγ mutant receptor (GST-fused LBD) (Homo sapiens, UniProt P62508, Y330A); assay: Saturation binding assay using [^3H]BPA
[16] = molecular target: Tyr330Phe-ERRγ mutant receptor (GST-fused LBD) (Homo sapiens, UniProt P62508, Y330F); assay: Saturation binding assay using [^3H]BPA
[17] = molecular target: Asn346Ala-ERRγ mutant receptor (GST-fused LBD) (Homo sapiens, UniProt P62508, N346A); assay: Saturation binding assay using [^3H]BPA
[18] = molecular target: His434Ala-ERRγ mutant receptor (GST-fused LBD) (Homo sapiens, UniProt P62508, H434A); assay: Saturation binding assay using [^3H]BPA
[19] = molecular target: Leu345Ala-ERRγ mutant receptor (GST-fused LBD) (Homo sapiens, UniProt P62508, L345A); assay: Saturation binding assay using [^3H]BPA
[20] = molecular target: Asn346Tyr-ERRγ mutant receptor (GST-fused LBD) (Homo sapiens, UniProt P62508, N346Y); assay: Saturation binding assay using [^3H]BPA
[21] = molecular target: Leu342Ala-ERRγ mutant receptor (GST-fused LBD) (Homo sapiens, UniProt P62508, L342A); assay: Saturation binding assay using [^3H]BPA
[22] = system: ERRγ mutant receptors; assay: [^3H]BPA saturation and/or competitive binding: ranges stated over several ERRγ mutants or both assays

CC(C)(c1ccc(O)cc1)c1ccc(O)cc1 [BPA, bisphenol A]
Receptor density for [^3H]BPA, B max [1]: NSB
Receptor density for [^3H]BPA, B max [2]: 6.35±0.57 nmol/mg protein
Receptor density for [^3H]BPA, B max [3]: 2.75±0.50 nmol/mg protein
Receptor density for [^3H]BPA, B max [4]: 9.33±1.23 nmol/mg protein
Receptor density for [^3H]BPA, B max [5]: 18.40±0.78 nmol/mg protein
Receptor density for [^3H]BPA, B max [6]: 2.87±0.34 nmol/mg protein
Receptor density for [^3H]BPA, B max [7]: NSB
Specific binding ([8]; saturation binding): ca. 70 % of the total binding
Receptor density for [^3H]BPA, B max [8]: 11.8±0.57 nmol/mg protein
Receptor density for [^3H]BPA, B max [9]: 4.34±0.44 nmol/mg protein
Receptor density for [^3H]BPA, B max [10]: 6.78±0.33 nmol/mg protein
Receptor density for [^3H]BPA, B max [11]: 8.84±0.86 nmol/mg protein
Receptor density for [^3H]BPA, B max [12]: 5.92±0.12 nmol/mg protein
Decrease in affinity vs wild-type ([13]; saturation binding): 10 fold
Receptor density for [^3H]BPA, B max [13]: 7.72±0.55 nmol/mg protein
Receptor density for [^3H]BPA, B max [14]: 4.07±0.21 nmol/mg protein
Reduction in K d value vs wild-type ([15]; saturation binding): more than 50 fold
Receptor density for [^3H]BPA, B max [15]: 0.91±0.22 nmol/mg protein
Reduction in K d value vs wild-type ([16]; saturation binding): approximately 2 fold
Receptor density for [^3H]BPA, B max [16]: 7.37±0.33 nmol/mg protein
Specific binding ([17]; saturation binding): ca. 90 % of the total binding
Receptor density for [^3H]BPA, B max [17]: 18.3±0.69 nmol/mg protein
Receptor density for [^3H]BPA, B max [18]: NSB
Drop in receptor affinity vs wild-type ([19]; saturation binding): approximately 3.5 fold
Receptor density for [^3H]BPA, B max [19]: 13.6±0.41 nmol/mg protein
Specific binding ([20]; saturation binding): ca. 60 % of the total binding
Receptor density for [^3H]BPA, B max [20]: 9.37±0.42 nmol/mg protein
Receptor density for [^3H]BPA, B max [21]: NSB
Reduction in affinity vs wild-type ([22]; Ile349Ala mutant, saturation and competitive binding (Tables 1 and 2)): 3-4 fold
Activity decrements vs wild-type ([22]; Ile349Val and Ile349Leu mutants, saturation binding (Table 1)): 8-65%
